## AlphaSeq binding of Ab-14 light chain variants to a spike HR2 peptide

Source: Engelhart et al. 2022 (doi:10.1038/s41597-022-01779-4), MIT Lincoln Laboratory and A-Alpha Bio; data file from the FLAb repository.

Binding partner: SARS-CoV-2 spike HR2 peptide, sequence PDVDLGDISGINAS.

Each scFv is VH, a 15-residue (Gly4Ser)3 linker, VL, as in the parent Ab-14, and differs from it in the CDRs of the light chain only.
VH: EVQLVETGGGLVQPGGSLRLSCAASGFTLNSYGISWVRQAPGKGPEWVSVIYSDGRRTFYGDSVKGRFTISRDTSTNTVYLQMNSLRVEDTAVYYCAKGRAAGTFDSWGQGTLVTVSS
VL: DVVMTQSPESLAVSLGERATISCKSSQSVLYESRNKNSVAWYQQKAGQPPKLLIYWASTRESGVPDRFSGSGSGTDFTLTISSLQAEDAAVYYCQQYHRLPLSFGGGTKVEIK

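The parent was found by panning a naive human phage display library on the peptide. AAYL50 was designed without a model: most single CDR substitutions and a random sample of double and triple ones. AlphaSeq pools MATa yeast showing the antibodies with MATalpha yeast showing the peptide. The frequency of each diploid, read from paired DNA barcodes, reflects how well the two displayed proteins bind. The ratio of observed to expected reads was calibrated, replicate by replicate, on BCL2-family standards whose Kd was known from biolayer interferometry. There are three technical replicates.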

Substitutions are numbered in sequence along the VL above, starting at 1 (not Kabat).
The Kd shown is the geometric mean over detected replicates; a lower Kd is a better binder.
Where no diploid with the target was found in any replicate, the entry reads "nd": below detection, most likely a poor binder, though not proof of it.
Empty control strains, which show no peptide, gave a signal in 18% of pairings with library AAYL50; the median was 15 µM and 95% of these signals were weaker than 970 nM. No background was subtracted. For each scFv, signals with the empty controls are counted beside the result.
For reference, the parent read 4.4 nM as the reference entry and 48 nM as a member of this library.

apparent Kd | replicates with signal | empty controls | changes
nd | 0/3 | 1/9 | S33T/A40G/H98Y
850 µM | 1/3 | 2/9 | Y31H/Y97K
nd | 0/3 | 3/9 | A57M/Y97A
nd | 0/3 | 2/9 | S25P/V39R/P101A
9.6 nM | 3/3 | 4/9 | S25F/Y31N/N35V
5.1 nM | 3/3 | 2/9 | K24S/Y31A/L100N
330 µM | 1/3 | 1/9 | Q96A/H98E/P101K
nd | 0/3 | 0/9 | S26Y/V39I/W56G
1.1 µM | 3/3 | 5/9 | Q27F/N35C/H98L
nd | 0/3 | 0/9 | E32T/T59P/S62V
120 µM | 2/3 | 6/9 | K24N/Q27C/S28I
440 nM | 1/3 | 0/9 | S25W/K36D/S38D
48 µM | 3/3 | 6/9 | Y31K/S38G/Q96D
970 nM | 3/3 | 4/9 | E32S/T59A
650 nM | 2/3 | 0/9 | E32I/Q96F
14 nM | 3/3 | 1/9 | S28R/Y97M/L102M
50 nM | 3/3 | 0/9 | V29W/Q96R
70 nM | 3/3 | 0/9 | K24S/A57G/P101Y
nd | 0/3 | 0/9 | E61V/Y97C/L102F
nd | 0/3 | 0/9 | V29Y/A40S/Q96C
560 nM | 2/3 | 0/9 | A57H/S62P
nd | 0/3 | 2/9 | V29P/R60W
9.5 µM | 1/3 | 2/9 | K24E/S33H/R60C
590 nM | 3/3 | 1/9 | R60H/S62M/Y97P
2.2 nM | 3/3 | 1/9 | R34S/N35D/T59V
7.2 µM | 2/3 | 2/9 | S38F/R60I
nd | 0/3 | 0/9 | R34M/N37I
310 nM | 3/3 | 0/9 | S28L/S58I/H98A
14 nM | 3/3 | 6/9 | R34L/S58F/Q96P
12 µM | 1/3 | 2/9 | N37P/P101R/S103E
nd | 0/3 | 1/9 | S38F/V39M
68 µM | 1/3 | 1/9 | R60P/S62C/P101Y
1.0 nM | 3/3 | 3/9 | Q27P/N35C/W56Q
83 nM | 3/3 | 7/9 | Q27L/N35C
nd | 0/3 | 0/9 | R99M/P101D/L102R
32 nM | 3/3 | 1/9 | L30T/E32Y/R99D
1.6 µM | 2/3 | 0/9 | A57W/T59G/L100K
2.7 µM | 2/3 | 2/9 | S26G/T59N/E61G
31 nM | 3/3 | 0/9 | S28Y/V29F/R34F
140 nM | 3/3 | 1/9 | K24M/Y31G/S38G
450 nM | 3/3 | 6/9 | Q27K/W56S/S62G
3.2 µM | 3/3 | 3/9 | S26F/S28V/E32M
nd | 0/3 | 0/9 | R34S/S58Y/R99T
490 nM | 3/3 | 1/9 | K36P/S62D/L102S
nd | 0/3 | 1/9 | Q27C/V29C/P101C

For reference, 3 entries of the list once more:

changes,apparent Kd,replicates with signal,empty controls
K24M/Y31G/S38G,140 nM,3/3,1/9
K36P/S62D/L102S,490 nM,3/3,1/9
V29P/R60W,nd,0/3,2/9